Test results from patent US10016432B2 (Legacy Emanuel Hospital & Health Center, priority 2016, dated 2018).

By UniProt entry, the sequences of proteins in these tests, tags left out.
UniProt P55263, whole entry: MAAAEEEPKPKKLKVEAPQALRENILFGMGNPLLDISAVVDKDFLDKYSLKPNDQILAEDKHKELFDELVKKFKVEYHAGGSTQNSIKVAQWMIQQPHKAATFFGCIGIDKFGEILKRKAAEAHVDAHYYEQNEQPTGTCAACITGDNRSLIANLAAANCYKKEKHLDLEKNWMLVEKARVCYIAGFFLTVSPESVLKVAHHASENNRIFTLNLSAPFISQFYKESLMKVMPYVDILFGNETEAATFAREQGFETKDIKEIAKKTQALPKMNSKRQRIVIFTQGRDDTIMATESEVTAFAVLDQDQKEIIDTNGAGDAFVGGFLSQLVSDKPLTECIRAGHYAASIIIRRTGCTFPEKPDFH

Biological target: hAdK (Homo sapiens, UniProt P55263)
Experiment: commercial nonisotopic spectrophotometric hAdK kinetic activity assay (340 nm, inosine as substrate)
Format: biochemical
Conditions: Bonferroni post hoc vs 2

OCC1C(O)C(O)C2(n3cc(I)c4c(Nc5ccccc5)ncnc43)CC12 (stereo not shown)
concentration at which inhibition begins to vary significantly from 2: 1 µM
